In the library only some 3.7% were active in any assay of this set; here they are far more common.
Nrf2 activator: activates Nrf2 signaling; AREc32 ARE-luciferase reporter (MCF7-derived line), luminescence, 24 h; Potency, µM (top dose mostly 46.1 µM), hits mostly activators; hit rate 0.31% among 410,000; further: nearly all actives have a fitted effect of over 65% in size
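ARE activation measured as luciferase luminescence (Steady-Glo, 30 min RT) in AREc32_Fluc cells after 24 hr compound exposure at 37 deg C, 5% CO2; cells seeded overnight at 1000/well in OPTI-MEM, 5% FBS.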
A549 tox: A549 cytotoxicity, counter-screen for Nrf2 inhibitors | hit rate 0.16% among 390,000 | A549 ARE-Fluc cells, CellTiter-Fluor viability, 18-24 h | AID 504648 | Potency, µM (series often up to 46 µM), actives largely listed as inhibitors
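A549 ARE_Fluc cells in 5% FBS OPTI-MEM were exposed to compounds in concentration-response for 18-24 h at 37 deg C. Viability was read by CellTiter-Fluor fluorescence (Ex 405/Em 525) after 30 min, before the luciferase read.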
Nrf2 block: blocks Nrf2 signaling; A549 ARE-Fluc reporter, luciferase luminescence, 18-24 h; Potency, µM (series often up to 46 µM), usual class: inhibitors; hit rate 2.1% among 360,000; AID 504444; further: nearly all actives have a fitted effect of over 60% in size
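Reporter: ARE-Fluc in A549. Exposure: 18-24 h, 37 °C, 5% CO2, 5% FBS OPTI-MEM. Readouts: fluorescent cytotoxicity (CellTiter-Fluor), then luminescent Nrf2 signal after BugLite.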
ClpP mod: qHTS Assay for Activators of ClpP. ATP-dependent Clp protease proteolytic subunit (Bacillus subtilis (strain 168)), P80244. hit rate 1.9% among 340,000. Potency, µM (doses to about 57.5 µM). purified B. subtilis ClpP, FRET peptide cleavage, 20 min; active means well fitted falling curve with a large enough effect; inconclusive means small, poorly fitted or top-dose-only effect; inactive means no such curve, though single readings can be large or run the other way; further: the source files actives as falling curves though it sought activators and does not explain the sign; nearly all actives have a fitted effect of over 65% in size
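Buffer: 100 mM Tris/HCl pH8, 100 mM KCl, 0.05% low protease BSA, 2.5% glycerol, 0.01% Tween-20. ClpP 10 microg/mL final; 20 min RT; delta FRET normalized to ADEP and DMSO controls.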
miR-21 FLuc: miR-21 reporter, rising signal | AID 2288 | HeLa miR-21 FLuc reporter, luciferase, 48 h | 340,000 tested, under 10 active | Potency, µM (titrated, usually from 38.3 µM); active = well fitted rising curve with a large enough effect; inconclusive = small, poorly fitted or top-dose-only effect; inactive = no such curve, though single readings can be large or run the other way;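 also: miR-21 action dims this reporter so a rising signal means less miR-21 action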
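HeLa miR-21-FLuc reporter line, endogenous miR-21; 2000 cells/well in DMEM/10% FBS; compound titration up to ~40uM final, 48 h, 37 degree Celsius; luciferase detection reagent, 15 min lysis, CCD luminescence.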
TCR activator: T cell receptor activation; Potency, µM (titrated, usually from 9.22 µM), most hits filed as activators; 330,000 tested, under 10 active; primary human leukocytes, anti-CD3, IL-2 HTRF, 48 h; AID 504894
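48 hr co-incubation of compounds, a-CD3 beads and primary human leukocytes; IL-2 quantified homogeneously by HTRF with anti-IL-2 K and d2 conjugates.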
Of the large screens only hits and unclear results are named; the others gave an inactive call; ! = not active in a repeat. Unless noted, the call rests on the fitted dose curve; in most records, active means well fitted curve in the direction sought with a large enough effect; inconclusive means small, poorly fitted or top-dose-only effect, or another doubt; inactive means no such curve, though single readings can be large; an effect the other way counts as inactive or inconclusive.

NS(=O)(=O)c1ccc(CCNC(=O)Cn2c(-c3cccs3)cc3ccccc32)cc1	ClpP mod 35.5µM (no result: TCR activator)
Cc1ccc(C)c(N2CCN(CCCNC(=O)Cn3c(=O)c4cccn4c4cccnc43)CC2)c1	none
Cc1ccc(C)c(N2CCN(CCCNC(=O)Cn3c(-c4cccs4)cc4ccccc43)CC2)c1	A549 tox inconclusive, Nrf2 block inconclusive, ClpP mod 28.2µM (no result: TCR activator)
CCCN1CCN(CCCNC(=O)Cn2c(-c3cccs3)cc3cc(Cl)ccc32)CC1	ClpP mod 31.6µM (no result: TCR activator)
COc1ccccc1-c1oc2ccccc2c1C#CC(C)(C)O	none (no result: miR-21 FLuc)
CCCc1cc(=O)oc2cc(C)c3c(-c4cccc(OC)c4)coc3c12	none (no result: TCR activator)
Cc1c(Cl)cccc1NC(=O)Cn1nnc(-c2nc(-c3ccccc3)no2)c1N	Nrf2 block inconclusive (no result: TCR activator)
CCN(CC)c1ccc(/C=C/c2sc3ccccc3[n+]2CCCCI)cc1	none (no result: Nrf2 activator, A549 tox, Nrf2 block, miR-21 FLuc, TCR activator)
O=C(COC(=O)c1cc([N+](=O)[O-])ccc1NCCO)Nc1ccc2c(c1)OCO2	A549 tox inconclusive, Nrf2 block 10.3µM (no result: ClpP mod)
CNc1ccccc1C(=O)OCC(=O)Nc1ccc2c(c1)OCO2	Nrf2 block inconclusive, ClpP mod 28.2µM (no result: miR-21 FLuc)
CC[N+](CC)(CC)c1ccc(/C=C/c2ccnc3ccccc23)cc1	none (no result: Nrf2 activator, A549 tox, Nrf2 block, miR-21 FLuc, TCR activator)
O=C(Nc1ccc2c(c1)C(=O)N(CC1CCCO1)C2=O)c1cccc(Br)c1 (stereo unspecified)	Nrf2 block inconclusive, ClpP mod 31.6µM
O=C(O)c1cccc(NC(=O)c2ccc3c(c2)C(=O)N(CC2CCCO2)C3=O)c1 (stereo unspecified)	none
CC(=O)Oc1ccc(C(=O)Nc2ccc3c(c2)C(=O)N(CCC(=O)O)C3=O)cc1	ClpP mod 28.2µM
CC(=O)Oc1cccc(C(=O)Nc2ccc3c(c2)C(=O)N(CC2CCCO2)C3=O)c1 (stereo unspecified)	ClpP mod 31.6µM
Cc1ccc(-c2csc3ncn(CC(=O)NCC(c4ccco4)N4CCCC4)c(=O)c23)cc1 (stereo unspecified)	none (no result: miR-21 FLuc)
Cn1c(=O)c2nc(Cl)c(-c3ccccc3)nc2n(C)c1=O	ClpP mod 25.1µM
COC(=O)c1c(C)oc2ccc(N(C(=O)c3ccncc3)S(=O)(=O)c3ccccc3)cc12	A549 tox inconclusive (no result: Nrf2 block)
COC(=O)c1c(C)oc2ccc(N(C(=O)c3ccncc3)S(=O)(=O)c3ccc(C)cc3)cc12	A549 tox inconclusive, Nrf2 block 10.3µM
COC(=O)c1c(C)oc2ccc(N(C(=O)c3ccncc3)S(=O)(=O)c3ccc(C)cc3C)cc12	A549 tox inconclusive, Nrf2 block 6.51µM
COC(=O)c1c(C)oc2ccc(N(C(=O)c3ccncc3)S(=O)(=O)c3ccc4ccccc4c3)cc12	Nrf2 block 23.1µM
COc1ccc(-n2ccnc(NCc3ccc(Cl)cc3)c2=O)cc1	Nrf2 block inconclusive (no result: TCR activator)
COc1ccc(CCc2nnc(CCC(=O)N(C)Cc3ccnc4ccccc34)o2)cc1	A549 tox inconclusive, Nrf2 block 20.6µM (no result: ClpP mod)
COc1ccc(CCNC2CC(=O)N(C3CCCCC3)C2=O)cc1OC (stereo unspecified)	none
COCCn1nnnc1C(C(C)C)N(Cc1cccnc1)Cc1cc2cc(OC)ccc2[nH]c1=O (stereo unspecified)	ClpP mod 25.1µM (no result: Nrf2 block)
COCCn1nnnc1C(C(C)C)N(Cc1ccccc1)Cc1cc2cc(OC)ccc2[nH]c1=O (stereo unspecified)	A549 tox inconclusive (no result: Nrf2 block)
Cc1cc[n+](CC[n+]2ccc(C)cc2)cc1	none (no result: miR-21 FLuc)
CCC(C)(C)c1ccc(OCCCC[n+]2ccc(C)cc2)c(C(C)(C)CC)c1	A549 tox inconclusive, Nrf2 block 13µM, miR-21 FLuc inconclusive
CCC(C)(C)c1ccc(OCCCC[n+]2cccc(C)c2C)c(C(C)(C)CC)c1	A549 tox 11.6µM, Nrf2 block 5.8µM, miR-21 FLuc inconclusive
Cc1cc(C)cc(Nc2nc3ccccc3nc2-n2nc(C)cc2C)c1	Nrf2 block inconclusive (no result: TCR activator)
CC1CCN(C(=O)CSc2nc(N)c3c4c(sc3n2)CN(C)CC4)CC1	ClpP mod 28.2µM
CN1CCc2c(sc3nc(SCC(=O)N4CCOCC4)nc(N)c23)C1	ClpP mod inconclusive
Cc1sc(NC(=O)/C=C/C(=O)O)c(C(N)=O)c1-c1ccc(C(C)(C)C)cc1	Nrf2 activator 12.6µM
CCOC(=O)c1c(NC(=O)/C=C/C(=O)O)sc(C)c1-c1ccc(C(C)(C)C)cc1	Nrf2 activator inconclusive, Nrf2 block inconclusive, miR-21 FLuc inconclusive
CC1Cc2c([nH]c(=O)n(-c3ccccc3)c2=O)O1 (stereo unspecified)	none (no result: miR-21 FLuc)
Cc1ccc(NC(=O)c2nsc(Cl)c2Cl)cc1	Nrf2 activator 5.62µM, Nrf2 block inconclusive
COc1ccccc1C(=O)N1[C@@H](C(C)C)COc2cc(Br)ccc2S1(=O)=O	none (no result: miR-21 FLuc)
Cc1ccccc1C(=O)NC1CCCCCCC1	Nrf2 block inconclusive
O=C(NCCO)c1ccccc1O	ClpP mod 31.6µM
O=C(NCCNC(=O)c1ccccc1O)c1ccccc1O	none
O=C(NC1CCCCCCC1)c1ccccc1O	ClpP mod 28.2µM
Cc1ccc(CN(C(=O)COc2cc(C)c(Cl)c(C)c2)c2ccccn2)o1	Nrf2 block inconclusive (no result: TCR activator)
CC1(C)Nc2cccc3c(N=Nc4ccc(N=Nc5ccccc5)c5ccccc45)ccc(c23)N1	none (no result: Nrf2 activator, A549 tox, Nrf2 block, miR-21 FLuc, TCR activator)
O=C(CSc1nnc(-c2cccnc2)n1CCN1CCCCC1)Nc1cccc(Cl)c1	ClpP mod 15.8µM
Cn1c(SCC(=O)Nc2cccc(F)c2)nnc1-c1cccnc1	none
Cc1cc(NC(=O)CSc2nnc(-c3cccnc3)n2Cc2ccccc2)no1	ClpP mod 3.16µM
COc1ccc(Cl)cc1C1=NOC2(CCC2)C(=O)N1Cc1cccc(C#N)c1	none (no result: A549 tox, Nrf2 block, miR-21 FLuc, TCR activator)
COC(=O)c1ccccc1S(=O)(=O)N1CCC(C(=O)NCc2ccco2)CC1	none (no result: miR-21 FLuc)
COc1cccc(-c2nn(C)c3sc(C(=O)NCc4ccc(C)cc4)cc23)c1	Nrf2 block inconclusive, ClpP mod 20µM!
COc1cccc(-c2nn(C)c3sc(C(=O)NCc4ccccn4)cc23)c1	Nrf2 block inconclusive, ClpP mod 28.2µM
CCN(CC)CCNC(=O)c1cc2c(-c3ccc(Cl)cc3)nn(C)c2s1	none
Cc1ccc(NC(=O)c2cc3c(-c4ccccc4)nn(-c4ccccc4)c3s2)cc1	ClpP mod 17.8µM (no result: TCR activator)
CCCN(CCC)CCNC(=O)c1cc2c(-c3ccc(Cl)cc3)nn(C)c2s1	A549 tox 23.1µM, Nrf2 block 23.1µM!
O=C(CN1C(=O)NC2(CCCCC2)C1=O)N1CCN(S(=O)(=O)c2cccc([N+](=O)[O-])c2)CC1	none (no result: miR-21 FLuc)

Bioassay records (PubChem)
